Literature values as cited in PMC11423305, “Structure-Based Design of CBP/EP300 Degraders: When Cooperativity Overcomes Affinity” (JACS Au, 2024).

Chains of the proteins cited; added tags and fusions are not shown.
UniProt Q92793, whole entry: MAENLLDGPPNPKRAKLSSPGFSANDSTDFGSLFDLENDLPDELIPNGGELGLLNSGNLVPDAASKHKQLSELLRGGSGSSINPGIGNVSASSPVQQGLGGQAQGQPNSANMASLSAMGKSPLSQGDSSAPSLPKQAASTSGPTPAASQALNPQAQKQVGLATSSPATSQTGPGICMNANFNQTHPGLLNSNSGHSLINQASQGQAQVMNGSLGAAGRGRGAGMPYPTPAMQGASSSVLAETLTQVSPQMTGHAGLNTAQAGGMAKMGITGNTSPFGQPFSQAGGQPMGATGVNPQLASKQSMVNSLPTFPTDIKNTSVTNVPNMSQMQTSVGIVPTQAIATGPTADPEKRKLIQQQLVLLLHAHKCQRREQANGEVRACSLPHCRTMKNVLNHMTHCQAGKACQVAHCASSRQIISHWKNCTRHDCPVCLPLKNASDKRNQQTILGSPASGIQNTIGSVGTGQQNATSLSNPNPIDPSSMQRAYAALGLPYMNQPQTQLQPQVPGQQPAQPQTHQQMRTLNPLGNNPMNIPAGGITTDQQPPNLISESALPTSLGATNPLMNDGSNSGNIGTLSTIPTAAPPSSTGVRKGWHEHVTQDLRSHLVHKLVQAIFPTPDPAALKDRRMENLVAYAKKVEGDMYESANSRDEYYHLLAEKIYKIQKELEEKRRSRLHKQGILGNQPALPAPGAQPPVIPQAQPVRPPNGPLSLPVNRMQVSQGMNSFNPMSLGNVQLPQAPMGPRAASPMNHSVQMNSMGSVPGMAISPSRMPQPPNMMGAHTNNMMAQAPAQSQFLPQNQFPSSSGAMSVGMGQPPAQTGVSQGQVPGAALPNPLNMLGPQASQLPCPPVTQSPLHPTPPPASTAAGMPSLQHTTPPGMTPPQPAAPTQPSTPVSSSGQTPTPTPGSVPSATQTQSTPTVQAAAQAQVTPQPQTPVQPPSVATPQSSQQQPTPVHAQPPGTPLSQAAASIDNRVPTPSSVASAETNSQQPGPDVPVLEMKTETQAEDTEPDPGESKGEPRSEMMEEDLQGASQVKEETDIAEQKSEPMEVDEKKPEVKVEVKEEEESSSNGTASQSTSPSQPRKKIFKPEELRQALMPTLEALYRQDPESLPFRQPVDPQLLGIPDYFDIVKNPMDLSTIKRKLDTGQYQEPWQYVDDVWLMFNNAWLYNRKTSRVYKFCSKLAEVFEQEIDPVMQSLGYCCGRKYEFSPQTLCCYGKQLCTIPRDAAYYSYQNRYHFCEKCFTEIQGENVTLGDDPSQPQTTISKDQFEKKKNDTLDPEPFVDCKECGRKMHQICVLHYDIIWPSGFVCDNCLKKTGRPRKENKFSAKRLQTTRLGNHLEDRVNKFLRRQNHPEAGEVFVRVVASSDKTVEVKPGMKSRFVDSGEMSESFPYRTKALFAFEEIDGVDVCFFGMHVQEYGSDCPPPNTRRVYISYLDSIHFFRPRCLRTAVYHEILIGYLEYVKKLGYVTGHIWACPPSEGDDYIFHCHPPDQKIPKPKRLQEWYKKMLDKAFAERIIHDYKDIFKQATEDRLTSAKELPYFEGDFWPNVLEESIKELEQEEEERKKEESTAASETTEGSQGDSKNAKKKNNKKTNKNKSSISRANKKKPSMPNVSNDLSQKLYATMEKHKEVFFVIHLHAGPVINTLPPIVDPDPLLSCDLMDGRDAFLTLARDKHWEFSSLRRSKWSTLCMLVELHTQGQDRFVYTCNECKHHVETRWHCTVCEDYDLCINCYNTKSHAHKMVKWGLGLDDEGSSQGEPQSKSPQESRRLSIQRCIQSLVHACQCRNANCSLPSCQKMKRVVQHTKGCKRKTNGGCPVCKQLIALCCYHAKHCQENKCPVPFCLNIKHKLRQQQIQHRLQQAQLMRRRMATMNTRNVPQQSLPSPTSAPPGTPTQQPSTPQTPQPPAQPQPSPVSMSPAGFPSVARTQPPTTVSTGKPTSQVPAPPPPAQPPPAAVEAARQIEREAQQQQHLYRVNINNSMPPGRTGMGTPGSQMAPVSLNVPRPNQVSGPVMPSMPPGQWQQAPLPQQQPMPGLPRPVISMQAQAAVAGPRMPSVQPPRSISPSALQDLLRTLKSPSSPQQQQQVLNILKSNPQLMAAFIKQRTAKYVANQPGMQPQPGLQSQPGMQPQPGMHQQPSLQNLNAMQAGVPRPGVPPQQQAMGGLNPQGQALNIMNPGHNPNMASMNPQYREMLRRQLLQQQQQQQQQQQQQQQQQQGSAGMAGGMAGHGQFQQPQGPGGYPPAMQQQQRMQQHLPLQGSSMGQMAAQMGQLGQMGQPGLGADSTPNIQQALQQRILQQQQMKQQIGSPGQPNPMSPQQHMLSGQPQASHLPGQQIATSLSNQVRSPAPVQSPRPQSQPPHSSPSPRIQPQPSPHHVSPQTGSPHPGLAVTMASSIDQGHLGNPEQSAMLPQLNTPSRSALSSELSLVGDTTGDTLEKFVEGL

Biological target: CBP (Homo sapiens, UniProt Q92793)
Settings: CBP/EP300 degradation; ref 1 (Vannam et al., 2021); cited from earlier work

CNC(=O)N1CCc2c(c(N3CCCc4cc(-c5cnn(C)c5)c(C(F)F)cc43)nn2C2CCN(C(=O)CCOCCOCCOCCOCCNc3ccc4c(c3)C(=O)N(C3CCC(=O)NC3=O)C4=O)CC2)C1 (stereo not shown)
time at which Dmax is reached: 2 to 3 h
